Among the data in BindingDB's records for doi:10.1016/j.bmcl.2009.09.123 (Genomics Institute of The Novartis Research Foundation, 2009) are IC50 values, retold here.

A short description of this test: Inhibition of Tel-fused LCK expressed in mouse BAF3 cells.

For orientation: IC50 means the concentration that inhibits the measured activity by half. A lower IC50 goes with greater potency in that assay. Take `Cc1ccc(NC(=O)c2ccncc2C(C)(C)C)cc1Nc1nc2ccccc2n1-c1cc(N)ncn1` [N-(3-(1-(6-aminopyrimidin-4-yl)-1H-benzo[d]imidazol-2-ylamino)-4-methylphenyl)-3-tert-butylisonicotinamide]: the IC50 came out at 7 nM.
